# Source: patent US20260232815A1, “COPOLYMER-DRUG CONJUGATE FOR TREATMENT OF TUMOURS” (Danmarks Tekniske Universitet, priority 2023, published 2026)
# Assay: Biodistribution by fluorescence imaging after subcutaneous injection in healthy mice
# Settings: monitored 2 weeks
compound,measurement,value
C[N+]1=C(C=CC2=CC(=CC=C3N(CCCCCC(=O)NCCCCCC(=O)N4Cc5ccccc5C#Cc5ccccc54)c4ccccc4C3(C)C)CCC2)C(C)(C)c2ccccc21.F[P-](F)(F)(F)(F)F [DBCO-Cy7],fluorescence signal remaining at the injection site over time,most of its signal being gone after 1 week
